# According to patent US12497460B2, “Anti-MSR1 antibodies and methods of use thereof” (REGENERON PHARMACEUTICALS, INC., priority 2018, dated 2025):
# T1: His9-hMSR1 (human MSR1 extracellular domain) (Homo sapiens, UniProt P21757)
# T1 construct: human MSR1 extracellular domain expressed with a N-terminal nonahistidine tag; His9 (nonahistidine) (N); purchased R&D Systems 2708-MS
# T1 sequence (P21757 77-451 limits assumed): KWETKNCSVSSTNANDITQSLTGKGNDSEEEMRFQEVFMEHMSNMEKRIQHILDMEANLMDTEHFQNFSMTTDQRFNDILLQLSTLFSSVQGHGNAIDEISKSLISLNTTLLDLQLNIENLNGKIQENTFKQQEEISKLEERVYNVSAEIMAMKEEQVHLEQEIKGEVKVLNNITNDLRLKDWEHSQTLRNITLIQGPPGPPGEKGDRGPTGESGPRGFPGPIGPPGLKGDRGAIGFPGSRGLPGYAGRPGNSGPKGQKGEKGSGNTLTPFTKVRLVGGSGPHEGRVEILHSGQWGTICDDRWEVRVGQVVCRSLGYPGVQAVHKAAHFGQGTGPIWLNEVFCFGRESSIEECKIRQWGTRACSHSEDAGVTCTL
# B1: H1H27751P-N297Q: one of "Twelve anti-MSR1 antibodies"; "made with an N297Q single point mutation in human Fcγ portion" (antibody, V domains shown)
# VH: EVQLVESGGGLVQPGGSLRLSCAASGFTFSNYAMHWVRQAPGKGLEYVSAISSNGGSTYYADSVKGRITISRDNSKNTLYLQMGSLRAEDMAVYYCARGRPYYYYFGMDVWGQGTTVTVSS
# VL: DIVMTQTPVSSPVTLGQPASISCRSSQSLVHSDGNTYLSWFQQRPGQPPRLLIYKISNRFSGVPDRFSGSGAGTDFTLKISRVEAEDVGVYYCMQATQFPLNFGGGTKVEIKR
# Target: T1, His9-hMSR1 (human MSR1 extracellular domain)
# Test: Biacore surface plasmon resonance binding kinetics of anti-MSR1 mAbs, antibody-capture format
# Conditions: analyte His9-hMSR1, NB = no binding observed
# Description: Binding affinities and kinetic constants of human anti-MSR1 antibodies for different MSR1 reagents were determined by real-time surface plasmon resonance (Biacore 4000). All binding studies were performed in 10 mM HEPES, 150 mM NaCl, 3 mM EDTA, and 0.05% v/v Surfactant Tween-20, pH 7.4 (HBS-ET) running buffer at 25° C. and 37° C.
# The association rate (ka) and dissociation rate (kd) were determined by fitting the real-time binding sensorgrams to a 1:1 binding model with mass transport limitation using Scrubber 2.0c curve-fitting software. Binding dissociation equilibrium constant (KD) and dissociative half-life (t½) were calculated from the kinetic rates as: […]
molecule,measurement,setting,value
B1,ka,25° C.,1.78e+06 M⁻¹ s⁻¹
same,ka,37° C.,1.45e+06 M⁻¹ s⁻¹
